Curated experimental data: vapor pressure values

Data: OPERA 2.9 data sets, kmansouri/OPERA on GitHub.

Vapor pressures (log10 mmHg) refer to near room temperature, 15 to 30 °C; higher is more volatile.
Cells with "–" have no entry in this list.

structure (SMILES),name,vapor pressure (log10 mmHg)
COCC(CCC(C)C)(COC)C(C)C,"3,3-Bis(methoxymethyl)-2,6-dimethylheptane",-0.71
C=CC(C)(CCC=C(C)CC)OC(C)=O (configuration not stated),"1,6-Nonadien-3-ol, 3,7-dimethyl-, 3-acetate",-1.264
CC(=O)OCC(C)(C)C=O,"2,2-Dimethyl-3-oxopropyl acetate",-0.029
CCCCCCCCNC(=O)Nc1ccc(Cc2ccc(NC(=O)NCCCCCCCC)cc2)cc1,"N,N'-[Methylenedi(4,1-phenylene)]bis(N'-octylurea)",-13.95
CC1=C(O)C(=O)CC1,Cyclotene,0.197
NCC(=O)[O-].NCC(=O)[O-].[Ca+2],Calcium glycinate,-6.397
CCn1c(O)c(N=Nc2ccc(Cl)cc2[N+](=O)[O-])c(C)c(C#N)c1=O,–,-10.08
O=C(OC[C@H]1O[C@@](COC(=O)c2ccccc2)(O[C@H]2O[C@H](COC(=O)c3ccccc3)[C@@H](OC(=O)c3ccccc3)[C@H](OC(=O)c3ccccc3)[C@H]2OC(=O)c2ccccc2)[C@@H](OC(=O)c2ccccc2)[C@@H]1OC(=O)c1ccccc1)c1ccccc1,Sucrose octabenzoate,-9.772
Clc1cccc2cccc(Cl)c12,"1,8-Dichloronaphthalene",-2.824
O=CNC[C@H](O)[C@@H](O)[C@H](O)[C@H](O)CO,1-Deoxy-1-formamido-D-glucitol,-4.837
Cc1ccc(C(=O)O)c(Oc2ccccc2CC(=O)O)c1C,"2-[2-(Carboxymethyl)phenoxy]-3,4-dimethylbenzoic acid",-10
CC(C)c1ccccc1C(=O)O,NoName_97,-3.459
CCCCCCCCOc1ccc(C(=O)c2ccccc2)c(O)c1,Octabenzone,-7.471
COCCCOc1cc(C[C@@H](C[C@H](N=[N+]=[N-])[C@@H]2C[C@@H](C(C)C)C(=O)O2)C(C)C)ccc1OC,–,-10.76
COc1nc(C)nc(NC(=O)NS(=O)(=O)c2ccccc2OCCCl)n1,Triasulfuron,-7.813
CC(CN)CCCN (configuration not stated),2-Methylpentanediamine,-0.708
CC(C)(CN)CN,"1,3-Propanediamine, 2,2-dimethyl-",0.235
CCN(CC)CCOCc1ccc(C)cc1.Cl,"N,N-Diethyl-2-(4-methylbenzyloxy) ethylamine hydrochloride",-7.049
CC(O)C1CCCCC1 (configuration not stated),1-Cyclohexylethanol,-0.559
CCC(C)N[Si](C)(C)NC(C)CC (configuration not stated),"Silanediamine, 1,1-dimethyl-N,N'-bis(1-methylpropyl)-",-1.347
CCC1(C)Nc2cccc3cccc(c23)N1,"2-Ethyl-2-methyl-2,3-dihydroperimidine",-5.121
Nc1ccc(O)cc1[N+](=O)[O-],4-Amino-3-nitrophenol,-4.913
Nc1ccccc1O,2-Aminophenol,-2.02
CC(C)CCCCCCCCCCCCCCC(=O)OC(C)C(=O)OC(C)C(=O)[O-].[Na+] (configuration not stated),Sodium isostearoyl-2-lactylate,-4.415
CCc1cc(Cc2cc(CC)cc(C(C)(C)C)c2O)c(O)c(C(C)(C)C)c1,"2,2'-Methylenebis(ethyl-6-tert-butylphenol)",-6.104
CCOC(=O)CNC(=O)[C@@H]1C[C@H](C)CC[C@H]1C(C)C,–,-5.763
c1ccc([C@H]2CN3CCSC3=N2)cc1,Levamisole,-3.955
Clc1cccc(-c2ccc(Cl)c(Cl)c2Cl)c1,–,-4.365
CC(C)(CO)[C@@H](O)C(=O)NCCCO,Dexpanthenol,-5.45
C=CC(C)CCCC(C)(C)O (configuration not stated),"1,1,5-Trimethyl-6-heptenol",-0.872
C=CC(=O)OCCOCCOCC(CC)CCCC (configuration not stated),Di(ethylene glycol) 2-ethylhexyl ether acrylate,-3.481
CCOC(=O)CC1(C)OCCO1,"1,3-Dioxolane-2-acetic acid, 2-methyl-, ethyl ester",-0.091
Cn1nc(C(F)F)c(C(=O)F)c1F,–,-2.33
CCOC(=O)CCC1(C)OCC(C)O1 (configuration not stated),"1,3-Dioxolane-2-propanoic acid, 2,4-dimethyl-, ethyl ester",-1.312
CC(C)(C)OC(=O)N[C@@H](Cc1ccccc1)[C@@H](O)CN(Cc1ccc(-c2ccccn2)cc1)NC(=O)OC(C)(C)C,–,-11.78
C=CC(=O)NC(C)(C)CS(=O)(=O)O,2-Acrylamido-2-methyl-1-propanesulfonic acid,-8.481
CC1(C)CCC[C@]2(C)[C@H]3CC(=O)O[C@]3(C)CC[C@@H]12,(3aR)-(+)-Sclareolide,-7.881
CCCCCCCCCCCCCC[N+](C)(C)CC(=O)[O-],–,-8.369
CCCCCCCCN=c1cc[nH]cc1,N-Octylpyridin-4(1H)-imine,-4.557
C1CCC2=NCCCN2CC1,"1,8-Diazabicyclo[5.4.0]undec-7-ene",-1.736
COC(=O)c1nc(Cl)c(Cl)nc1N,"Methyl 3-amino-5,6-dichloropyrazine-2-carboxylate",-6.444
OCC(O)COC1CCCCC1 (configuration not stated),Cyclohexylglycerin,-3.205
CCNCCO,2-(Ethylamino)ethanol,-0.371

Excerpt, the final 7 entries:

structure (SMILES),name,vapor pressure (log10 mmHg)
CC1(C)CCC[C@]2(C)[C@H]3CC(=O)O[C@]3(C)CC[C@@H]12,(3aR)-(+)-Sclareolide,-7.881
CCCCCCCCCCCCCC[N+](C)(C)CC(=O)[O-],–,-8.369
CCCCCCCCN=c1cc[nH]cc1,N-Octylpyridin-4(1H)-imine,-4.557
C1CCC2=NCCCN2CC1,"1,8-Diazabicyclo[5.4.0]undec-7-ene",-1.736
COC(=O)c1nc(Cl)c(Cl)nc1N,"Methyl 3-amino-5,6-dichloropyrazine-2-carboxylate",-6.444
OCC(O)COC1CCCCC1 (configuration not stated),Cyclohexylglycerin,-3.205
CCNCCO,2-(Ethylamino)ethanol,-0.371

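These are experimental values that the OPERA curators gathered from public databases to train and test their QSAR models. The files give a single number for a compound and property, which may rest on several reports. Method, purity and exact conditions of the single measurements are not given. A value may pool stereoisomers or salt forms, and the file does not say which form was measured. Some upstream entries may be estimates or bounds without being marked so.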